From PubChem BioAssay AID504326 (The Scripps Research Institute Molecular Screening Center, 2011)
Only a part is listed here, and it is no random draw. Calls of active or inactive are those of the source. Rule as the data show it: active = activation above about 18%; inactive = the rest.

The chains behind the UniProt entries cited, without tags or fusion partners.
UniProt P35372, whole entry, looked up: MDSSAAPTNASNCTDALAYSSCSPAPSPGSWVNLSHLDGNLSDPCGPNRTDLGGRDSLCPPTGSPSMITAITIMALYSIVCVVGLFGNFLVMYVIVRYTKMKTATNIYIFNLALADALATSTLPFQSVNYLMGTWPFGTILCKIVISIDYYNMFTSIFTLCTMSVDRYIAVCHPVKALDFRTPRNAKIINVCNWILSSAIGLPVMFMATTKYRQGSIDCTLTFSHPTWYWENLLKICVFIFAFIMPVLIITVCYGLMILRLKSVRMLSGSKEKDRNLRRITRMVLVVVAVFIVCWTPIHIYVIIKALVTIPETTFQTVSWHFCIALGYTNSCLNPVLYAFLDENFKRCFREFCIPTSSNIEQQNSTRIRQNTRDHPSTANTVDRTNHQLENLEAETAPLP
UniProt P41143, whole entry, looked up: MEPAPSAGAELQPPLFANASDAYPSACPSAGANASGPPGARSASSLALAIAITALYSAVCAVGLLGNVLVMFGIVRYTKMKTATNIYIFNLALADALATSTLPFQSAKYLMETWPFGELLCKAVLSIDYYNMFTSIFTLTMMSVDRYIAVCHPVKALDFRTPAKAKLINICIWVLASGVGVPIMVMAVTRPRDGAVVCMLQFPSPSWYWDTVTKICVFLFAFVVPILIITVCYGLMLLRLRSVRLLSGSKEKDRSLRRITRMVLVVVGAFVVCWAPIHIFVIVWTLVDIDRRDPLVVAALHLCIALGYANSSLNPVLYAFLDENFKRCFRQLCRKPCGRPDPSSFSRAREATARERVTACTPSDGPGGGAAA

These compounds were tested against Mu-type opioid receptor (Homo sapiens) + Delta-type opioid receptor (Homo sapiens) (UniProt P35372+P41143) (assay: agonists of OPRM1-OPRD1 heterodimerization, primary screen, cell-based, luminescence (AID 504326;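 also: 0% = vehicle-treated cells and 100% = reference agonist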)). Settings: cells, at 9.3 µM, active compounds read high.
For `CCN(CC)CCn1c(NCc2ccco2)nc2ccccc21`, the activation was inactive: -0.73%.
`CS(=O)(=O)N1CCn2c1nc1ccccc12` was tested, and the activation was inactive: -0.11%.
With `Cc1nc2ccccc2n1CC(=O)N/N=C\C=C\c1ccccc1` the activation was inactive: -1.75%.
In the case of `COC(=O)[C@H](Cc1ccccc1)NC(=O)Cn1cnc2c(OCc3ccccc3)ncnc21`, the activation is reported as inactive: -1.69%.
`COc1cccc(NC(=S)N2CCn3c(nc4ccccc43)C2)c1` was tested, and the activation was inactive: -1.01%.
In the case of `CC(C)C[C@H](NC(=O)N1CCn2c1nc1ccccc12)C(=O)NCc1ccc2c(c1)OCO2`, the activation is reported as inactive: -0.59%.
For `Cc1ccc(OCC(O)Cn2c(=N)n(CCN3CCCCC3)c3ccccc32)cc1` (centres undefined), the activation was inactive: 0.88%.
In the case of `N=c1n(CCN2CCCCC2)c2ccccc2n1CC(O)c1cccc(Br)c1` (centres undefined), the activation is reported as inactive: 2.69%.
With `Cn1c(=O)n(Cc2ccccc2F)c(=O)c2c1nc1n2CCN1Cc1ccco1` the activation was inactive: -2.76%.
For `CCc1cccc(NC(=O)Cn2c3[n+](c4ccc(C(F)(F)F)cc42)CCCCC3)c1`, the activation was inactive: -2.34%.
With `NC(=O)CC(NC(=O)Cc1ccc(Cl)cc1)c1ccc(NC2CCN(Cc3ccccc3)CC2)c([N+](=O)[O-])c1` (centres undefined) the activation was inactive: -1.17%.
`Clc1n[nH]nc1-c1nn[nH][15n]1` was tested, and the activation was inactive: -2.45%.
With `COc1ccc(/C=N/NC(=O)Cn2c(Cc3ccc(OC)c(OC)c3)nc3ccccc32)cc1OC` the activation was inactive: 2.05%.
For `Cc1ccc(CSc2nc3ccncc3n2CC(=O)Nc2cc(C)cc(C)c2)cc1`, the activation was inactive: 6.14%.
In the case of `NNC(=O)Cn1c(-c2nonc2N)nc2ccccc21`, the activation is reported as inactive: 6.41%.
In the case of `COc1ccc(CNC(=O)Cn2cnc3c(SC)nc(N)nc32)cc1`, the activation is reported as inactive: -2.23%.
For `COc1ccc(OCC(O)Cn2c(=N)n(CCN3CCOCC3)c3ccccc32)cc1` (centres undefined), the activation was inactive: 2%.
`CN(C)CCn1c(NC(=O)c2ccc(Cl)cc2)nc2ccccc21` was tested, and the activation was inactive: -0.73%.
In the case of `O=C(Cn1c(C(F)(F)F)nc2ccccc21)Nc1ccccc1C(=O)O`, the activation is reported as inactive: -2.47%.
`C[C@H](O)[C@@H]1C(=O)N2CCc3ccc(N4CCOCC4)cc3[C@@H]2C[C@@H]1N(C)C(=O)C(C)(C)C` was tested, and the activation was inactive: 0.39%.
In the case of `O=C(NCCn1c(C(F)(F)F)nc2cc(C(F)(F)F)ccc21)[C@H]1CCCN1c1nc(CN2CCCCC2)cs1`, the activation is reported as inactive: -1.73%.
With `Cc1cc(C)cc(NC(=O)Cn2c(-c3ccccc3Cl)nc3ccccc32)c1` the activation was inactive: 0.5%.
For `CC(C)(C)C(=O)NC(Sc1ncccn1)C(Cl)(Cl)Cl` (centres undefined), the activation was inactive: -0.42%.
For `CCCC(=O)Nc1nnc(/C=C/c2ccccc2)s1`, the activation was inactive: -2%.
